{
  "source": "paper PMC4139204",
  "about": "“Insight into the Architecture of the NuRD Complex” (The Journal of Biological Chemistry, 2014)",
  "type_in_all_cases": "cell-based, D. melanogaster (Dmel-2 cells)",
  "key": {"Nurf55 WT [1]": {"tested_on": "Nurf55 WT", "test": "GFP affinity purification with wild-type Nurf55 bait, mass spectrometry", "conditions": "anti-GFP nanobody beads, Dmel-2 cells, triplicate, lowest number of unique peptides listed", "description": "(§1) Full-length Nurf55 (also known as p55 and CAF1) is the D. melanogaster homolog of RbAp46/p48. It was PCR-amplified and cloned into the pDONR221 vector via the BP (recombination and insertion of the att B sequence into the att P recombination site) reaction using standard Gateway Technology (Invitrogen) protocols. Five residues in this plasmid were mutated (L35Y, E361Q, D362N, E364Q, D365N) to create pDONR-Nurf55mut using the QuikChange Lightning Site-directed Mutagenesis kit (Agilent Technologies). The resulting wild-type and mutant clones were verified by sequencing. Primer sequences for the constructs are available on request. The Nurf55 genes were then transferred into destination vectors for the inducible expression of protein A- or GFP-tagged fusion proteins by the LR (insertion of sequences containing att L sites into destination att R sites) reaction according to the manufacturer's instructions. […]\n(§2) We also identified Simjang and CG18292 as possible Drosophila homologs of the mammalian GATAD2A/2B (p66α/p66β) and CDK2AP (DOC1 ([46])) proteins, respectively. […] However, once again the numbers of NuRD complex peptides detected with the Nurf55 mutant were reduced greatly (see Table 2), confirming that disruption of the RbAp48-MTA1 interface we identified abolishes the association of RbAp48 with the NuRD complex."}, "Nurf55 MUT [2]": {"tested_on": "Nurf55 MUT", "test": "Protein A affinity purification with mutant Nurf55 bait, mass spectrometry", "description": "(§3) Full-length Nurf55 (also known as p55 and CAF1) is the D. melanogaster homolog of RbAp46/p48. It was PCR-amplified and cloned into the pDONR221 vector via the BP (recombination and insertion of the att B sequence into the att P recombination site) reaction using standard Gateway Technology (Invitrogen) protocols. Five residues in this plasmid were mutated (L35Y, E361Q, D362N, E364Q, D365N) to create pDONR-Nurf55mut using the QuikChange Lightning Site-directed Mutagenesis kit (Agilent Technologies). The resulting wild-type and mutant clones were verified by sequencing. Primer sequences for the constructs are available on request. The Nurf55 genes were then transferred into destination vectors for the inducible expression of protein A- or GFP-tagged fusion proteins by the LR (insertion of sequences containing att L sites into destination att R sites) reaction according to the manufacturer's instructions.\n(§4) D. melanogaster Dmel-2 cell lines stably expressing either tagged wild-type or mutant Nurf55 (containing the L35Y, E361Q, D362N, E364Q, and D365N mutations) were established. Affinity purification of protein A- and GFP-tagged bait and interacting proteins followed by mass spectrometry identification was carried out as previously reported ([39][–][41]). […]"}, "Nurf55 WT [3]": {"tested_on": "Nurf55 WT", "test": "Protein A affinity purification with wild-type Nurf55 bait, mass spectrometry", "description": "as §3, §4"}, "Nurf55 MUT [4]": {"tested_on": "Nurf55 MUT", "test": "GFP affinity purification with mutant Nurf55 bait, mass spectrometry", "conditions": "anti-GFP nanobody beads, Dmel-2 cells, triplicate, lowest number of unique peptides listed, mutant E361Q, D362N, E364Q, D365N, L35Y", "description": "as §1, §2"}},
  "data": [
    {"substance": "dMi-2: known subunit of the D. melanogaster NuRD complex, Mi-2 (dCHD)", "values": [
      {"measurement": "Number of peptides identified, Nurf55 WT", "setting": "Nurf55 WT [1]", "result": 49},
      {"measurement": "Number of peptides identified, Nurf55 MUT", "setting": "Nurf55 MUT [2]; IgG beads, Dmel-2 cells, mutant E361Q, D362N, E364Q, D365N, L35Y", "result": 0},
      {"measurement": "interaction with Nurf55mut", "setting": "Nurf55 MUT [2]; Nurf55mut", "result": "not observed"},
      {"measurement": "Number of peptides identified, Nurf55 WT", "setting": "Nurf55 WT [3]; IgG beads, Dmel-2 cells", "result": 6},
      {"measurement": "interaction with Nurf55", "setting": "Nurf55 WT [3]; wild-type Nurf55", "result": "pulled down by Nurf55"},
      {"measurement": "Number of peptides identified, Nurf55 MUT", "setting": "Nurf55 MUT [4]", "result": 14}
    ]}
  ]
}
